The record followed here is patent US7632815B2, “Use of calmodulin kinase II inhibitors to treat myocardial dysfunction in structural heart disease” (Vanderbilt University, priority 2001, dated 2009).

For the experiment, the system named is CAN+ transgenic mice. As to the kind of experiment: Echocardiography in calcineurin (CAN+) transgenic dilated cardiomyopathy model. The conditions noted are these: dual transgenic AC3-I+/CAN+ compared to CAN+ mice.

In the case of KKALHRQEAVDCL [AC3-I], the “left ventricular (LV) dilation” value was “reduced”. The LV fractional shortening entry (4-8 weeks of age) is reported as “improved”.
